From patent publication US20110150767A1, “ALPHA-SUBSTITUTED AND ALPHA-UNSUBSTITUTED AROMATIC AMINO ACID DERIVATIVES AND COMPOSITIONS THEREOF FOR USE TO TREAT, DIAGNOSE, OR MONITOR A MEDICAL CONDITION” (priority 2009, published 2011)

Amino acid sequences for entries named in this document (tags omitted). Residues count along the entry.
UniProt Q01650, whole entry: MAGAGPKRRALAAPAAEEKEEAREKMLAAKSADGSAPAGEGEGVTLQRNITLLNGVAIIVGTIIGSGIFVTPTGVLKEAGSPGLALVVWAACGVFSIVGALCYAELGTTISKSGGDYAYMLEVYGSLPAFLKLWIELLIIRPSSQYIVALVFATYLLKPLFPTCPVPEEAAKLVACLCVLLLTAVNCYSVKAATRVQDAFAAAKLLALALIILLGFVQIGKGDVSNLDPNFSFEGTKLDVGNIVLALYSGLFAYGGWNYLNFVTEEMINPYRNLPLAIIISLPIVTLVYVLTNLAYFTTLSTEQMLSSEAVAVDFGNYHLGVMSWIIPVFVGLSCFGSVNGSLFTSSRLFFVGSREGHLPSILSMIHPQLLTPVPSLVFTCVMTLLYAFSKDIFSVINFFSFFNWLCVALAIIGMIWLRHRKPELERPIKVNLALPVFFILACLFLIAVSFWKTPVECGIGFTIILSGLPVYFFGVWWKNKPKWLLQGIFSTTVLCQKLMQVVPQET
UniProt Q9UHI5, whole entry: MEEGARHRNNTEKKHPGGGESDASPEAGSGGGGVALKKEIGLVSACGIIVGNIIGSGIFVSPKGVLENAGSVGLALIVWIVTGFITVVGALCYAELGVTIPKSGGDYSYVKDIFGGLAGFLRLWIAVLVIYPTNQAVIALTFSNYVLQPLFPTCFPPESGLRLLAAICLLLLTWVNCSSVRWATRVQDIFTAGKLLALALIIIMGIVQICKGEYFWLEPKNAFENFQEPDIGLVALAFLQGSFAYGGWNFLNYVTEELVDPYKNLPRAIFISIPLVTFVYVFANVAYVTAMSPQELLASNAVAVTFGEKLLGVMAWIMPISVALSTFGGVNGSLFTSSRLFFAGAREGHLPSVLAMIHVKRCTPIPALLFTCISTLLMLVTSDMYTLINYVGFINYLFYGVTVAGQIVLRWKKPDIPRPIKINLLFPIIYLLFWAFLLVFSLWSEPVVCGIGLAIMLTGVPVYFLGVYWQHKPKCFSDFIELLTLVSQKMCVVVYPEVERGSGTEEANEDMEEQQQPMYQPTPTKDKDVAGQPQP
UniProt P08195, 102-630 partner: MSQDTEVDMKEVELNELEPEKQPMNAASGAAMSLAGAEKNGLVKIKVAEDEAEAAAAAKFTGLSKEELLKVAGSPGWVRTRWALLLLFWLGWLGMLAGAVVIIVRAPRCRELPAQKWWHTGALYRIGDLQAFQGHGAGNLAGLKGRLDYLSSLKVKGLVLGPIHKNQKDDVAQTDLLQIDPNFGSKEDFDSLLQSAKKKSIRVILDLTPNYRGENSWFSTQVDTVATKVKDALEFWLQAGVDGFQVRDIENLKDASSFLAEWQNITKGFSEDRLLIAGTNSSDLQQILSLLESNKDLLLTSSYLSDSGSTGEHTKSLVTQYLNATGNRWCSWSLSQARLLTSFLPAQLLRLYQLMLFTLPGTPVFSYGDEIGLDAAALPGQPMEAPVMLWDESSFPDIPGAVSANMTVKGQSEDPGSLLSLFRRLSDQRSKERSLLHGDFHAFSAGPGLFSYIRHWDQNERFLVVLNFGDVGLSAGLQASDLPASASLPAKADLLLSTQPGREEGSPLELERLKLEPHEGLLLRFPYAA

Columns and labels:
[1] = target: human L-type amino acid transporter 1 (LAT1; S2-hLAT1 cells) (Homo sapiens, UniProt Q01650); assay: Inhibition of L-[14C]leucine uptake in S2-LAT1 cells; conditions: read-out: IC50 (μM) S2-LAT1, inhibition of 1.0 μM L-[14C]leucine uptake, 1.0 min, 37° C., NI = no inhibition at 100 μM, tested form: HCl
Protocol: (§1) The establishment and characterization of mammalian cell lines expressing human L-type amino acid transporterss (i.e. S2-hLAT1 and S2-hLAT2) has been previously described (Morimoto et al., Journal of Pharmacological Sciences, 2008, 108, 505-516).
(§2) General test procedures are as follows: All test compounds were dissolved in dimethyl sulfoxide (DMSO) to prepare stock solutions at the concentrations of 0.05, 0.5, 5.0 and 50 mM; next, these stock solutions were used and diluted with uptake solution to make final test concentrations of 0.10, 1.00, 10.0 and 100 μM, respectively. Therefore, all compounds used for uptake experiment were in uptake solution containing 0.2% DMSO; experiments are performed in triplicate for each concentration. For control uptake, only DMSO was added into the uptake solution to a final concentration of 0.2%.
(§3) S2-LAT1 and S2-LAT2 cells were seeded (1.3×10^5 cells/well) into 24-well plates and cultured at 33° C. (5% CO2) for 2-3 days until confluent (90%-100% confluence). Uptake experiments were performed at 37° C. The culture medium was removed and washed 3 times with uptake solution (37° C.; Hank's Na^+ free buffer consisting of 125 mM choline chloride, 4.8 mM KCl, 1.3 mM CaCl2, 1.2 mM MgCl2, 25.0 mM HEPES, and 5.0 mM Tris, pH 7.4, supplemented with D-glucose (5.6 mM). The cells were equilibrated in uptake solution (300 μL; 37° C.) for 12 min. The equilibrated solution was removed and uptake solution containing radio-labeled compound (1.0 μM L-[^14C] Leucine) with or without test compound (300 μL) was added to the cells (1.0 min). The test solution was removed and the cells washed 3 times with ice-cold uptake solution. The cells are then solubilized with 0.1N NaOH (0.5 mL) and transferred to scintillation vials. Liquid scintillation fluid (3.0 mL; aquasol-2) was added, mixed and substrate accumulation was measured by counting radioactivity via liquid scintillation counting (LSC; LSC6100, Aloka, Tokyo). The uptake value and % of inhibition were calculated to afford IC50 values.

[2] = target: human L-type amino acid transporter 2 (LAT2; S2-hLAT2 cells) (Homo sapiens, UniProt Q9UHI5); assay: Inhibition of L-[14C]leucine uptake in S2-LAT2 cells; conditions: read-out: IC50 (μM) S2-LAT2, inhibition of 1.0 μM L-[14C]leucine uptake, 1.0 min, 37° C., NI = no inhibition at 100 μM, tested form: HCl
Protocol: as §1, §2, §3

Row | SMILES | IC50 [1] | IC50 [2]
1 | COc1ccc(COc2c(I)cc(C[C@H](N)C(=O)O)cc2I)cc1OC | 19.2 µM | 95.6 µM
2 | N[C@@H](Cc1cc(I)c(OCCCc2ccccn2)c(I)c1)C(=O)O | > 100 µM | > 100 µM
3 | N[C@@H](Cc1cc(Cl)c(OCCc2cccc(C(F)(F)F)c2)c(Cl)c1)C(=O)O | 13.2 µM | > 100 µM
4 | N[C@@H](Cc1cc(Cl)c(OCCc2ccc(C(F)(F)F)cc2)c(Cl)c1)C(=O)O | 1.3 µM | > 100 µM
5 | CCOc1ccc(COc2c(Br)cc(C[C@H](N)C(=O)O)cc2Br)cc1OCC | 2.6 µM | 35.7 µM
6 | N[C@@H](Cc1cc(I)c(OCc2ccc(C(F)(F)F)cc2)c(I)c1)C(=O)O | 84.7 µM | 7.7 µM
7 | COc1cc(OC)c(OC)cc1COc1c(I)cc(C[C@H](N)C(=O)O)cc1I | 70.6 µM | > 100 µM
8 | N[C@@H](Cc1cc(Br)c(OCc2ccccn2)c(Br)c1)C(=O)O | > 100 µM | > 100 µM
9 | COc1ccc(COc2c(Br)cc(C[C@H](N)C(=O)O)cc2Br)cc1OC | 23.3 µM | 130 µM
10 | COc1ccccc1CCOc1c(I)cc(C[C@H](N)C(=O)O)cc1I | 3.9 µM | > 100 µM
11 | N[C@@H](Cc1cc(Cl)c(OCc2cccc(C(F)(F)F)c2)c(Cl)c1)C(=O)O | 2.9 µM | 9.2 µM
12 | N[C@@H](Cc1cc(Cl)c(OCCc2ccc([N+](=O)[O-])cc2)c(Cl)c1)C(=O)O | 19.8 µM | > 100 µM
13 | COc1cccc(COc2c(Br)cc(C[C@H](N)C(=O)O)cc2Br)c1OC | 27.5 µM | > 100 µM
14 | CCOc1cc(COc2c(I)cc(C[C@H](N)C(=O)O)cc2I)cc(OCC)c1OCC | 6.2 µM | > 100 µM
15 | N[C@@H](Cc1cc(I)c(OCc2ccccc2F)c(I)c1)C(=O)O | 29.8 µM | 7.4 µM
16 | N[C@@H](Cc1cc(I)c(OCc2cccc(F)c2)c(I)c1)C(=O)O | 42.5 µM | 12.9 µM
17 | Cc1c(C)c(C)c(COc2c(I)cc(C[C@H](N)C(=O)O)cc2I)c(C)c1C | > 100 µM | > 100 µM
18 | COc1cc(COc2c(Br)cc(C[C@H](N)C(=O)O)cc2Br)cc(OC)c1OC | 9.4 µM | > 100 µM
19 | N[C@@H](Cc1cc(Cl)c(OCc2ccc(F)cc2)c(Cl)c1)C(=O)O | 10.2 µM | 19 µM
20 | COc1ccccc1COc1c(I)cc(C[C@H](N)C(=O)O)cc1I | 17.8 µM | > 100 µM
21 | COc1ccc(COc2c(Cl)cc(C[C@H](N)C(=O)O)cc2Cl)cc1 | 16.8 µM | 59.7 µM
22 | N[C@@H](Cc1cc(Cl)c(OCCc2ccc(F)cc2)c(Cl)c1)C(=O)O | 34.5 µM | > 100 µM
23 | N[C@@H](Cc1cc(Br)c(OCCc2ccccc2)c(Br)c1)C(=O)O | 19.9 µM | > 100 µM

Row | SMILES | IC50 [1] | IC50 [2]
24 | N[C@@H](Cc1cc(Br)c(OCc2ccc(F)cc2F)c(Br)c1)C(=O)O | 38.5 µM | 43.8 µM
25 | N[C@@H](Cc1cc(Br)c(OCc2cccnc2)c(Br)c1)C(=O)O | > 100 µM | > 100 µM
26 | N[C@@H](Cc1cc(Cl)c(OCc2ccc(F)c(F)c2)c(Cl)c1)C(=O)O | > 100 µM | > 100 µM
27 | N[C@@H](Cc1cc(Br)c(OCc2cc(F)c(F)c(F)c2)c(Br)c1)C(=O)O | 59.5 µM | > 100 µM
28 | COc1ccc(COc2c(Br)cc(C[C@H](N)C(=O)O)cc2Br)c(C)c1C | 18.1 µM | > 100 µM
29 | COc1cc(OC)c(OC)cc1COc1c(Br)cc(C[C@H](N)C(=O)O)cc1Br | 31.1 µM | > 100 µM
30 | N[C@@H](Cc1cc(I)c(OCCc2ccc(F)cc2)c(I)c1)C(=O)O | > 100 µM | > 100 µM
31 | COc1ccc(COc2c(Br)cc(C[C@H](N)C(=O)O)cc2Br)c(OC)c1OC | 12.1 µM | > 100 µM
32 | N[C@@H](Cc1cc(Br)c(OCc2ccc(C(F)(F)F)cc2)c(Br)c1)C(=O)O | > 100 µM | > 100 µM
33 | N[C@@H](Cc1cc(Br)c(OCc2cccc(F)c2F)c(Br)c1)C(=O)O | 88 µM | 42.2 µM
34 | N[C@@H](Cc1cc(I)c(OCc2cccc(C(F)(F)F)c2)c(I)c1)C(=O)O | 40.5 µM | > 100 µM
35 | N[C@@H](Cc1cc(Br)c(OCc2cccc(F)c2)c(Br)c1)C(=O)O | 71.5 µM | 49.3 µM
36 | N[C@@H](Cc1cc(Br)c(OCCc2ccc(OC(F)(F)F)cc2)c(Br)c1)C(=O)O | 8.3 µM | > 100 µM
37 | N[C@@H](Cc1cc(Br)c(OCCc2cccc(F)c2)c(Br)c1)C(=O)O | 22.2 µM | > 100 µM
38 | N[C@@H](Cc1cc(Br)c(OCc2cc(C(F)(F)F)ccc2C(F)(F)F)c(Br)c1)C(=O)O | > 100 µM | > 100 µM
39 | N[C@@H](Cc1cc(I)c(OCc2cc(C(F)(F)F)cc(C(F)(F)F)c2)c(I)c1)C(=O)O | > 100 µM | > 100 µM
40 | COc1ccc(CCOc2c(Br)cc(C[C@H](N)C(=O)O)cc2Br)cc1OC | 3.9 µM | > 100 µM
41 | COc1cccc(COc2c(I)cc(C[C@H](N)C(=O)O)cc2I)c1 | > 100 µM | > 100 µM
42 | N[C@@H](Cc1cc(Br)c(OCCc2ccccc2F)c(Br)c1)C(=O)O | 37.1 µM | 91.9 µM
43 | COc1ccc(CCOc2c(Cl)cc(C[C@H](N)C(=O)O)cc2Cl)cc1 | 25.3 µM | > 100 µM
44 | N[C@@H](Cc1cc(I)c(OCc2ccc(F)cc2F)c(I)c1)C(=O)O | 14 µM | 5.5 µM
45 | CCOc1ccc(COc2c(Br)cc(C[C@H](N)C(=O)O)cc2Br)c(OCC)c1 | 1.4 µM | 28.7 µM
46 | N[C@@H](Cc1cc(Br)c(OCc2ccc(F)cc2)c(Br)c1)C(=O)O | 33.4 µM | 42.5 µM

Row | SMILES | IC50 [1] | IC50 [2]
47 | COc1ccc(CCOc2c(I)cc(C[C@H](N)C(=O)O)cc2I)cc1OC | 4.8 µM | > 100 µM
48 | N[C@@H](Cc1cc(I)c(OCc2cccnc2)c(I)c1)C(=O)O | 86 µM | > 100 µM
49 | COc1ccc(COc2c(I)cc(C[C@H](N)C(=O)O)cc2I)cc1 | 18.6 µM | > 100 µM
50 | COc1ccc(COc2c(Br)cc(C[C@H](N)C(=O)O)cc2Br)cc1[N+](=O)[O-] | > 100 µM | > 100 µM
51 | N[C@@H](Cc1cc(I)c(OCc2ccccc2C(F)(F)F)c(I)c1)C(=O)O | 122 µM | > 100 µM
52 | N[C@@H](Cc1cc(Cl)c(OCc2ccc([N+](=O)[O-])cc2)c(Cl)c1)C(=O)O | 62.4 µM | 23.1 µM
53 | COc1ccc(CCOc2c(I)cc(C[C@H](N)C(=O)O)cc2I)cc1 | 4.4 µM | > 100 µM
54 | N[C@@H](Cc1cc(Br)c(OCc2ccc([N+](=O)[O-])cc2)c(Br)c1)C(=O)O | 29.2 µM | 5.5 µM
55 | N[C@@H](Cc1cc(I)c(OCCc2ccccn2)c(I)c1)C(=O)O | 27.3 µM | > 100 µM
56 | N[C@@H](Cc1cc(Cl)c(OCc2cccnc2)c(Cl)c1)C(=O)O | 106 µM | > 100 µM
57 | N[C@@H](Cc1cc(Br)c(OCc2ccc(Cl)cc2)c(Br)c1)C(=O)O | 15.5 µM | 40.3 µM
58 | N[C@@H](Cc1cc(Cl)c(OCCc2ccccc2F)c(Cl)c1)C(=O)O | 35.1 µM | 56 µM
59 | N[C@@H](Cc1cc(Cl)c(OCCc2ccccc2C(F)(F)F)c(Cl)c1)C(=O)O | > 100 µM | > 100 µM
60 | N[C@@H](Cc1cc(I)c(OCc2cccc(F)c2F)c(I)c1)C(=O)O | 27 µM | 13.9 µM
61 | COc1ccccc1CCOc1c(Cl)cc(C[C@H](N)C(=O)O)cc1Cl | 3.4 µM | > 100 µM
62 | N[C@@H](Cc1cc(Br)c(OCc2ccc3c(c2)OCO3)c(Br)c1)C(=O)O | 22 µM | > 100 µM
63 | N[C@@H](Cc1cc(Cl)c(OCCc2cccc(F)c2)c(Cl)c1)C(=O)O | 37.4 µM | 61.3 µM
64 | N[C@@H](Cc1cc(I)c(OCCc2ccc(C(F)(F)F)cc2)c(I)c1)C(=O)O | 7.4 µM | > 100 µM
65 | N[C@@H](Cc1cc(I)c(OCc2ccccn2)c(I)c1)C(=O)O | 8 µM | > 100 µM
66 | N[C@@H](Cc1cc(Cl)c(OCCc2ccc(OC(F)(F)F)cc2)c(Cl)c1)C(=O)O | 7.7 µM | > 100 µM
67 | N[C@@H](Cc1cc(I)c(OCCc2ccccc2C(F)(F)F)c(I)c1)C(=O)O | > 100 µM | > 100 µM
68 | N[C@@H](Cc1cc(I)c(OCCc2ccccc2F)c(I)c1)C(=O)O | 54.5 µM | > 100 µM
